Data published in patent US10125101B2, “Indanylaminopyridylcyclopropanecarboxylic acids, pharmaceutical compositions and uses thereof” (Boehringer Ingelheim International GmbH, priority 2016, dated 2018).

Chains of the proteins cited; added tags and fusions are not shown.
UniProt O14842, whole entry: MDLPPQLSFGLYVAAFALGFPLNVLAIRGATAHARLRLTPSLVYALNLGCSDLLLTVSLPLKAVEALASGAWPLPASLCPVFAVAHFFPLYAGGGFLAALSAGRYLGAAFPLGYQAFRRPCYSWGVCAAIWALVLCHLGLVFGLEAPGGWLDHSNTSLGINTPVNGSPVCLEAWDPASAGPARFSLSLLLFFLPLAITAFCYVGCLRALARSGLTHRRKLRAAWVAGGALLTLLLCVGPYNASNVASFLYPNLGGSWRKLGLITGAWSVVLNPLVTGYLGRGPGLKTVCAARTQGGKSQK
UniProt P11712, whole entry: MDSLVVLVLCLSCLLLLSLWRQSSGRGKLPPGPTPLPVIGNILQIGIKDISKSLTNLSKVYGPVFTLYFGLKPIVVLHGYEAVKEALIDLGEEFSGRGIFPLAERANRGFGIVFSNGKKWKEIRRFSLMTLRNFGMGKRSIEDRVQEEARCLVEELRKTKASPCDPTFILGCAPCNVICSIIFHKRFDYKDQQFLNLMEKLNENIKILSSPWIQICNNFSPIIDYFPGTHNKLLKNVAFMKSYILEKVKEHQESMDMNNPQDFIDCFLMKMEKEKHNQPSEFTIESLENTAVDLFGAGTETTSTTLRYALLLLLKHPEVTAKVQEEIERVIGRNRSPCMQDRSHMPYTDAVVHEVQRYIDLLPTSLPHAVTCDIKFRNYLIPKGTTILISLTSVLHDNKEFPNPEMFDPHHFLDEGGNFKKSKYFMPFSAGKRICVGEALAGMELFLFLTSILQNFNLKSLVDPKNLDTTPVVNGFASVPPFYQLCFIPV
UniProt P10632, whole entry: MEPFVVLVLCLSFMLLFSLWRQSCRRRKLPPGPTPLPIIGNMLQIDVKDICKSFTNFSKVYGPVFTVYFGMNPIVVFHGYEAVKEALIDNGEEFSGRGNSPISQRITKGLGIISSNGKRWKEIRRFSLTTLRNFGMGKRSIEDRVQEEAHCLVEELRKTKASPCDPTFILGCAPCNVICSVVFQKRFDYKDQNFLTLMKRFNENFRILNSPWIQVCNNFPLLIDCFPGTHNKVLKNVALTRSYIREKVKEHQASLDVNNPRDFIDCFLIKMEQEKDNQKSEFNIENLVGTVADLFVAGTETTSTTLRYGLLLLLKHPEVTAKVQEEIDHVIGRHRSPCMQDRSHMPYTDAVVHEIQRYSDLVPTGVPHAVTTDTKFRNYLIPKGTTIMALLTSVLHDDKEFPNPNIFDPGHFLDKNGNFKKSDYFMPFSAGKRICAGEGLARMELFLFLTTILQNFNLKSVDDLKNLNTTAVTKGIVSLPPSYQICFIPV

Key:
[1] = molecular target: human GPR40 receptor (Homo sapiens (Human), UniProt O14842); test: IP1 accumulation measurements using the IPOne assay system; settings: 1321N1 cells stably expressing human GPR40, 1 h stimulation
Description: IP1 accumulation measurements using the IPOne assay system—1321N1 cells stably expressing human GPR40 receptor (Euroscreen, Belgium) are seeded 24 h before the assay in white 384-well plates in culture medium containing 10% FCS, 1% Na-Pyruvate and 400 μg/mL G418. IP1 is assayed according to the manufacturer's description (Cisbio Bioassays, France). In brief, the assay is started by substitution of the culture medium by stimulation buffer (Hepes 10 mM, CaCl2 1 mM, MgCl2 0.5 mM, KCl 4.2 mM, NaCl 146 mM, glucose 5.5 mM and LiCl 50 mM, pH 7.4). Cells are stimulated for 1 h at 37° C., 5% CO2 by addition of the compounds that are diluted in stimulation buffer containing LiCl. Assays are stopped by adding HTRF-conjugates (IP1-d2 and Anti-IP1 cryptate Tb) and lysis buffer, provided by the manufacturer. After an incubation time of 1 h at room temperature plates are measured using an EnVision™, Perkin Elmer. The obtained fluorescence ratios at 665/615 […] are then used to calculate the pEC50 values using Assay Explorer 3.3 Software (Accelrys, Inc.) by interpolation using an IP1 reference curve and subsequent sigmoidal curve fitting allowing for a variable hill slope.

[2] = Chemical stability (degradation kinetics) in acidic aqueous media; settings: pH value ca. 1.2 (acetonitrile/0.1 M aqueous HCl 2:3), 37° C.
[3] = Aqueous solubility; format: physicochemical; settings: buffer pH 2.2, 24 h shaking, 2.5% DMSO
Description: Starting from a 10 mM DMSO stock solution aliquots are diluted with acetonitrile/water (1/1) or buffer, respectively. After 24 h of shaking, the solutions are filtrated and analyzed by LC-UV. The amount dissolved in buffer is compared to the amount in the acetonitrile solution.

[4] = molecular target: cytochrome P450 2C9-isoenzyme (Homo sapiens (Human), UniProt P11712); test: Inhibition of CYP-2C9 (diclofenac hydroxylation, human liver microsomes); format: in vitro ADME; settings: read-out: IC50 (Cyp 2C9), diclofenac 10 μM, 37° C.
[5] = molecular target: cytochrome P450 2C8-isoenzyme (Homo sapiens (Human), UniProt P10632); test: Inhibition of CYP-2C8 (amodiaquine deethylation, human liver microsomes); format: in vitro ADME; settings: read-out: IC50 (Cyp 2C8), amodiaquine 1 μM, 37° C.

EC50 [1]: 0.005 µM | Amount of degradation after 2 h [2]: <0.5% | Solubility at pH value 2.2 [3]: 111 μg/mL | IC50 [4]: > 50 µM | IC50 [5]: 40 µM
SMILES: Cc1cc(-c2cc(=O)n(C)cn2)cc(C)c1-c1ccc(F)c2c1CC[C@H]2Nc1ccc([C@H]2C[C@@H]2C(=O)O)nc1
